Data as given in PMC4829233, “Identification of Novel Chemical Scaffolds Inhibiting Trypanothione Synthetase from Pathogenic Trypanosomatids” (PLoS Neglected Tropical Diseases, 2016).

Tested on: N[C@@H](CCC(=O)N[C@@H](CS)C(=O)NCC(=O)O)C(=O)O
Assay: purified protein, by the assay type
Details: other: LDH/PK assay, saturating co-substrates; pH 7.4

Substance: T. cruzi trypanothione synthetase (TcTryS) (Trypanosoma cruzi strain CL Brener)
- Km: 123 ± 23 µM and 140 ± 13 µM

Where “and” joins values, the source holds several entries; their conditions need not be identical. Identical values can stand only once.
